Data from US10988456B2, “O-aminoheteroaryl alkynyl-containing compound, preparation method therefor, and use thereof” (SHANGHAI INSTITUTE OF MATERIA MEDICA, CHINESE ACADEMY OF …, priority 2017, dated 2021).

Amino acid sequences for entries named in this document (tags omitted). Residues count along the entry.
UniProt P11362, 22-822: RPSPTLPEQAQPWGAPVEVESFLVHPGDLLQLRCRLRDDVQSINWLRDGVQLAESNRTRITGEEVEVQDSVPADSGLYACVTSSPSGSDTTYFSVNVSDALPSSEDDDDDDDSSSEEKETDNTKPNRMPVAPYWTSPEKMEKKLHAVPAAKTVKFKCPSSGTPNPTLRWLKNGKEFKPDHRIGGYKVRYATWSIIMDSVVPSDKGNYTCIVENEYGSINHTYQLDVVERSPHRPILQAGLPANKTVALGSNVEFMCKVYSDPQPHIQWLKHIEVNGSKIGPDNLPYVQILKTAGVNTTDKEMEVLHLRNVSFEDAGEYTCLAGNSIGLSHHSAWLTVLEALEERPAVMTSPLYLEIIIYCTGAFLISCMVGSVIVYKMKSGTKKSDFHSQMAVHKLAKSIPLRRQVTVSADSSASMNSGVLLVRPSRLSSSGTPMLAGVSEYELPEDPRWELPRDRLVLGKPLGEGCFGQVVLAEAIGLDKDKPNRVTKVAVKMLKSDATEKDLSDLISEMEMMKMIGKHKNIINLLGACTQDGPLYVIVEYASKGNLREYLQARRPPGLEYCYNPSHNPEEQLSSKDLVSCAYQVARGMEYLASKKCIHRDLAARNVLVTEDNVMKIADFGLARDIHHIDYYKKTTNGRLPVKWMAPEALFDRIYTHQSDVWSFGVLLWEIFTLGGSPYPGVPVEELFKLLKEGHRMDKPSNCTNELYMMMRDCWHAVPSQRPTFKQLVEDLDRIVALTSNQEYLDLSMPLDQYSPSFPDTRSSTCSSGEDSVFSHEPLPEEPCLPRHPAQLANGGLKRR
UniProt P35968, 20-1356: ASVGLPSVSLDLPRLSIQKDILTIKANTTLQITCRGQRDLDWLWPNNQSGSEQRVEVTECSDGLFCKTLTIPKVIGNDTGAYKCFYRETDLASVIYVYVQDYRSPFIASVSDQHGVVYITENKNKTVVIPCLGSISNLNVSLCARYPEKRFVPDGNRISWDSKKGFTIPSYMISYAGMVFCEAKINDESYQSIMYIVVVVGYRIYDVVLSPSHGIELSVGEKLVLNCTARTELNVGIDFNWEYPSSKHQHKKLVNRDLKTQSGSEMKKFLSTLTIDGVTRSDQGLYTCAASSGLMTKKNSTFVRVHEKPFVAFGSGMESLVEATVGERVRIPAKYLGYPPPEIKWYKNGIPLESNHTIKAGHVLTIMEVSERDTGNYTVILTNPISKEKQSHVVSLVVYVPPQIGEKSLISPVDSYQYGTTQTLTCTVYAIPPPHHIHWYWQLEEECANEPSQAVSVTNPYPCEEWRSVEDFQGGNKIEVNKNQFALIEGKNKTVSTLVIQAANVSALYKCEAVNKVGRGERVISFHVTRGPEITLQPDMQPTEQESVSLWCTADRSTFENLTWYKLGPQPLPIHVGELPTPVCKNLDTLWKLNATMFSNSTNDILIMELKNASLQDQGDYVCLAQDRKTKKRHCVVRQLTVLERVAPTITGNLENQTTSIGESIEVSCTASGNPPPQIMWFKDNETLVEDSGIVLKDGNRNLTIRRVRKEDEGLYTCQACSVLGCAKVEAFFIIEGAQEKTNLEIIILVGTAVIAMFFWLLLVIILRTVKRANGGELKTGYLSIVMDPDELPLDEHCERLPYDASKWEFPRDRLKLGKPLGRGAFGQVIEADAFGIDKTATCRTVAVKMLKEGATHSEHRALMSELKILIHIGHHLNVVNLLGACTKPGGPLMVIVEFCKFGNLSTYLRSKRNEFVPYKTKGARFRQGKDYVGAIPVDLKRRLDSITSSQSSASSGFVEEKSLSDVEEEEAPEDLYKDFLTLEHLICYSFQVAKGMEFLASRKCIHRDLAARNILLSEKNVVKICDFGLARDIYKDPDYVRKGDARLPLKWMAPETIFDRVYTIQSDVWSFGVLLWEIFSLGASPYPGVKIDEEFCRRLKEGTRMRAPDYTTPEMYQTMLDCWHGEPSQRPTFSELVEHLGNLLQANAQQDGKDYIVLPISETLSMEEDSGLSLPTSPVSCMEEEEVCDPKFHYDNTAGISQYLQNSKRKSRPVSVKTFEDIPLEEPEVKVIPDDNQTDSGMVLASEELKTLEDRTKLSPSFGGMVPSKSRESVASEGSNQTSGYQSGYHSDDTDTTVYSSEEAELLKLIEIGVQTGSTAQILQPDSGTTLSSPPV

Experiments:
[1] = biological target: FGFR1 (Homo sapiens, UniProt P11362); test: Inhibition of receptor tyrosine kinase activity at molecular level (ELISA, Poly(Glu,Tyr)4:1 substrate phosphorylation); format: biochemical; details: 10 nM compound; average of two independent experiments
Procedure: (§1) Enzyme reaction substrate Poly(Glu, Tyr)4:1 was diluted with potassium-free PBS (10 mM sodium phosphate buffer, 150 mM NaCl, pH 7.2-7.4) to 20 μg/mL. […] The reaction was conducted under 37° C. for 12-16 hours. After the liquid was removed from the wells, the plate was washed three times with 200 μL/well of T-PBS (PBS containing 0.1% Tween-20), each for 5 minutes. The enzyme plate was dried in 37° C. dryer for 1-2 hours.
(§2) 50 μL ATP solution diluted with buffer (50 mM HEPES pH 7.4, 50 mM MgCl2, 0.5 mM MnCl2, 0.2 mM Na3VO4, 1 mM DTT) to a final concentration of 5 μM was added into each well. The compound was diluted with DMSO to a suitable concentration (1 μL/well) or the well contained the corresponding concentration of DMSO (negative control well) Then various kinase recombinant proteins diluted with 49 μL of reaction buffer was added to initiate the reaction. Each experiment required duplicate enzyme-free control well. The reaction was carried out for 1 hour on a 37° C. Shaker (100 rpm). The plate was washed three times with T-PBS. […] The reaction was quenched with 2M H2SO4 (50 μL/well), and read at 490 nm using a tunable microplate reader SPECTRA MAX 190.
(§3) The inhibition ratio of the sample was determined by the following formula: […]
(§4) The IC50 values were obtained via four-parameter regression analysis using the software supplied with the microplate reader.

[2] = biological target: KDR (Homo sapiens, UniProt P35968); test: as above; format: biochemical; details: 10 nM compound; average of two independent experiments
Procedure: as §1, §2, §3, §4

C[C@@H](Oc1ccc2[nH]nc(/C=C/c3cnn(CCO)c3)c2c1)c1c(Cl)cncc1Cl [LY2874455, reference compound]
10 nM inhibition ratio FGFR1 [1]: 97.5 | 10 nM inhibition ratio KDR [2]: 91.6
